According to US20140165223A1, “TNF SUPERFAMILY TRIMERIZATION INHIBITORS” (B.S.R.C. "Alexander Fleming", priority 2011, published 2014):

Legend:
L929 cells = test: L929 cytotoxicity assay of GST-TNF variants; type: cell-based, murine; details: 0.03-4 ng/ml and 240 ng/ml
Description: FIG. 6. G122R substitution abrogates TNF trimer formation, binding to TNFR and bioactivity. […] Data shown as mean±SEM of a representative experiment performed in triplicate. (FIG. 6C) L929 cytotoxicity assay was performed in the presence of WT GST-TNF or GST-TNF^G122R at serial dilutions (0.03-4 ng/ml). Data shown as mean±SEM of three experiments performed in triplicate.
The biological activity of the GST-TNF^G122R variant was tested using in vitro cytotoxicity assays.

TNF = test: Chemical cross-linking of soluble TNF proteins (trimer formation); type: biochemical, human; details: DSS cross-linking, soluble protein
Description: The G278 residue of RANKL is highly conserved among various members of the TNF superfamily (FIG. 2E). Thus, we investigated whether a similar substitution in soluble human TNF, which corresponds to a replacement of glycine with arginine at position 122 (G122R), modifies TNF trimerization and function.
(§1) The chemical cross-linking reagent disuccinimidyl suberate (DSS, Sigma) was used to examine the trimeric property of RANKL and TNF.^[33] 50 mM of DSS was prepared as a stock solution in dimethyl sulfoxide (DMSO). RANKL or TNF proteins at a final concentration of 0.1 mM in PBS buffer (pH 7.5) were mixed with 1 mM DSS (the molar ratio of DSS is 10:1). The cross-linking reactions were carried out for 1 hour at room temperature and terminated with 50 mM Tris (pH 7.5) for 30 minutes. Proteins from reaction mixtures were separated on 12% SDS-PAGE, followed by staining with Coomassie blue R-250 or proceeded in Western blot.

RANKL = test: Chemical cross-linking of soluble RANKL proteins (trimer formation); type: biochemical, mouse; details: DSS, soluble protein
Excerpt: The inability of the soluble RANKL^G278R protein to form trimers was then verified using chemical cross-linking (FIG. 4B). GST was removed from the RANKL protein with proteolytic cleavage of GST-RANKL bound on glutathione-beads. Even though, soluble WT RANKL was released efficiently from the beads, the majority of the soluble RANKL^G278R protein remained bound on the beads after digestion (data not shown). This phenomenon indicates increased hydrophobicity of the RANKL^G278R protein due to the formation of hydrophobic protein-protein interactions.
as §1

GST-TNF^G122R: extracellular domain of human TNF with G122R substitution, fused to GST
cytotoxicity in L929 cells (L929 cells): inefficient to induce cytotoxicity

TNF^G122R: soluble human TNF with glycine to arginine substitution at position 122
TNF trimer formation (TNF): abrogated trimer formation

B1: RANKL^G278R: murine RANKL with glycine to arginine substitution at residue 278; soluble or full-length Myc-tagged (protein, UniProt O35235 139-316, looked up, variant G278R)
Tumor necrosis factor ligand …: FSGAPAMMEGSWLDVAQRGKPEAQPFAHLTINAASIPSGSHKVTLSSWYHDRGWAKISNMTLSNGKLRVNQDGFYYLYANICFRHHETSGSVPTDYLQLMVYVVKTSIKIPSSHNLMKGGSTKNWSGNSEFHFYSINVGRFFKLRAGEEISIQVSNPSLLDPDQDATYFGAFKVQDID
modifications: Myc tag
notes: murine RANKL with glycine to arginine substitution at residue 278; soluble or full-length Myc-tagged
forms detected after cross-linking (RANKL): only the monomer form and a high molecular weight “aggregate” form
